Source: PMC4971072, “Chemically Homogenous Compounds with Antagonistic Properties at All α1-Adrenoceptor Subtypes but not β1-Adrenoceptor Attenuate Adrenaline-Induced Arrhythmia in Rats” (Frontiers in Pharmacology, 2016)
Structures can show the parent of a compound that is named as a salt.

Protein sequences, listed by entry. Tags and fused reporters are not part of them.
UniProt P97717, whole entry: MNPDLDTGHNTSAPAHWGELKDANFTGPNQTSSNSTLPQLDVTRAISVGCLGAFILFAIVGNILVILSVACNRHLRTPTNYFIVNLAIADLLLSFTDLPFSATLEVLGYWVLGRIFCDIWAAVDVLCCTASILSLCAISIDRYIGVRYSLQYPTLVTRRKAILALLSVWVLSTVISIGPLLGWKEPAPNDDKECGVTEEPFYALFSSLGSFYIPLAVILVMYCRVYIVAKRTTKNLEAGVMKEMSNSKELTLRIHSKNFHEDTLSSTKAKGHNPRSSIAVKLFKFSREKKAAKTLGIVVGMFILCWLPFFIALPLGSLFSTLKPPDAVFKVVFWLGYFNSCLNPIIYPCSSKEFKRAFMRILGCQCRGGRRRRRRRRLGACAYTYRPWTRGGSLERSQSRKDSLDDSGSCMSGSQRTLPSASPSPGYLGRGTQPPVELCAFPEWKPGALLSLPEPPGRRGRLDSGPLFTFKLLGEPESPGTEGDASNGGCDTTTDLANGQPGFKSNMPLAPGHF
UniProt P23944, whole entry: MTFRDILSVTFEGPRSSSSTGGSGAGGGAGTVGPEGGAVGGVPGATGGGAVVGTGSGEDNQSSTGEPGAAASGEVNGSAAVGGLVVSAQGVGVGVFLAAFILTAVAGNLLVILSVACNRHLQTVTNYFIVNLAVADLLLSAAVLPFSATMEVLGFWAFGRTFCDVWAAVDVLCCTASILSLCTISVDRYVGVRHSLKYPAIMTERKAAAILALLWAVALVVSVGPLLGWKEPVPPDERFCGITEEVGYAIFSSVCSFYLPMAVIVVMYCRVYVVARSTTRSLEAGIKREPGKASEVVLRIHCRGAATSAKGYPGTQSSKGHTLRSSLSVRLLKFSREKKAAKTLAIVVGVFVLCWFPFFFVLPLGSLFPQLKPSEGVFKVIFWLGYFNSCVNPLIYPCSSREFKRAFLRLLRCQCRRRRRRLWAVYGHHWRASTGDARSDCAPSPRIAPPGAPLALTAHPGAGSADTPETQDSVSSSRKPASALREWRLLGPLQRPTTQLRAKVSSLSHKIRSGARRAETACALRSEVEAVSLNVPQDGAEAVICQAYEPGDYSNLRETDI

Legend:
α1A-adrenoceptors = target: T1, α1A-adrenoceptors (Rattus norvegicus, UniProt P43140); test: Functional bioassay, isolated rat tail artery, noradrenaline contraction; assay type: biochemical
T1 construct: the middle part of the ventral caudal artery was removed; from tissue; host or cells: isolated rat tail (ventral caudal) artery rings
T1 sequence (P43140 1-466): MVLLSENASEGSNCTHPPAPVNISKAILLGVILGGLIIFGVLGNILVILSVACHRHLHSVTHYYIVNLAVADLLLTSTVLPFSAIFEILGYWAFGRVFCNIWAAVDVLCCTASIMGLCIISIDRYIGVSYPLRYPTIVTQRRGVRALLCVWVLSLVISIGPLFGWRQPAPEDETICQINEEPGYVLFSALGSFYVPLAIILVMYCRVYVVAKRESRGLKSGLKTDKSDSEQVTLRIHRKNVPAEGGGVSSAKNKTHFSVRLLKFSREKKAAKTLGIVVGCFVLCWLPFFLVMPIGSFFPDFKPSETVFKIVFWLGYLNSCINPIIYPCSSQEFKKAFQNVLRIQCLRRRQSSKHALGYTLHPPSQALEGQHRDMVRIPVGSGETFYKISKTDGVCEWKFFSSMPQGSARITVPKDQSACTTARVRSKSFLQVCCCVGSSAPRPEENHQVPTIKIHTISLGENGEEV
Method: The isolated artery, cut into ~4 mm long rings, was then horizontally put up between two stainless steel hooks (diameter 0.15 mm). One hook was fastened to the bottom of the chamber and the other to an isometric FDT10-A force displacement transducer (DMT Model 750TOBS, Denmark), linked with Powerlab 4/26 analyzer (ADInstruments), and processed by LabChart 7 software. […] The initial optimal tissues tension was set at 0.75 g. Chloroethylclonidine (3 μM) as the preferential α1B-adrenoreceptor alkylating agent was used during incubation and after 30 min it was completely washed off. Through 100 min of equilibration tissues were stimulated with noradrenaline (1 μM) four times with washing out until the contractile response become constant. Two cumulative concentration-response curves to noradrenaline, at an interval of 60 min, were established on each arterial ring both in the presence and absence of antagonist. The incubation with antagonists went on for 30 min. The experiments were carried out in the constant presence of yohimbine (0.1 μM) and propranolol (1 μM) to block α2- and β-adrenoceptors, respectively in order to minimize the involvement of these adrenoceptors in the response to noradrenaline.
Data are means ± S.E.M. of at least 4 separate experiments. […]

α1B-adrenoceptors = target: T2, α1B-adrenoceptors (Mus musculus, UniProt P97717); test: Functional bioassay, isolated mouse spleen, noradrenaline contraction; assay type: biochemical
T2 construct: The spleen was removed from male mice; from tissue; host or cells: isolated mouse spleen
Method: The influence on α1B-adrenoceptors was evaluated using the isolated mouse spleen. The spleen was removed from male mice right after killing the anesthetized animal by cervical dislocation. […] The initial optimal tissues tension was set at 1.0 g. Through the 100 min of equilibration tissues were stimulated with noradrenaline (0.1−10.0 μM) three times with washing out until the contractile response become constant. Two cumulative concentration-response curves to noradrenaline, at an interval of 60 min, were established on each tissue both in the presence and absence of antagonist. The incubation with antagonists went on for 30 min. The experiments were carried out in the constant presence of propranolol (1 μM) to block β-adrenoceptors, and minimize the involvement of these adrenoceptors in the response to noradrenaline.
(§1) Data are means ± S.E.M. of at least 4 separate experiments. To establish Hill slopes for the agonist concentration–response curves and calculate EC50 values, curves were fitted to all the data by non-linear regression. The EC50 value in the presence and absence of antagonists was used to ascertain the concentration ratio (CR). Schild analysis was performed.

normal ECG in rats = settings: rat, in vivo, ip
α1D-adrenoreceptors = α1D-adrenoreceptors (Rattus norvegicus, UniProt P23944); test: Functional bioassay, isolated rat aorta, noradrenaline contraction; assay type: biochemical; parameters: had aorta removed, denuded of endothelium and incubated in the Krebs-Henseleit solution; from tissue; host or cells: isolated rat aorta rings
Method: Finally, the influence on α1D-adrenoreceptors was investigated using the isolated rat aorta. […] The aorta rings were maintained at optimal tension of 2.0 g. During 3 h of equilibration tissues were stimulated with noradrenaline three times (0.3 μM). Two cumulative concentration-response curves to noradrenaline, at an interval of 60 min, were established on each tissue both in the presence and absence of antagonist. The incubation with antagonists went on for 30 min. The experiments were carried out in the constant presence of yohimbine (0.1 μM) and propranolol (1 μM) to block α2- and β-adrenoceptors, respectively.
as §1

For `COc1ccccc1N1CCN(CCCOc2cc(C)ccc2C)CC1` [HBK-17, 1N-[3-(2,5-dimethylphenoxy)propyl]-4N-(2-methoxyphenyl)piperazine hydrochloride], the Kb (α1A-adrenoceptors) was 7.08 nM, the “Schild slope ± S.E.M., α1A” value (α1A-adrenoceptors) was 8.15 ± 0.08 (0.91 ± 0.05) and the Kb (α1B-adrenoceptors) was 11.5 nM. For the same compound, the “Schild slope ± S.E.M., α1B” value (α1B-adrenoceptors) was 7.94 ± 0.06 (0.91 ± 0.03), the “influence on ECG parameters (PQ interval, QRS complex, QTc interval)” value (normal ECG in rats) was “without affecting PQ interval, QRS complex or QTc interval” and the “reduction of heart rate” value (normal ECG in rats) was 9−12%. The Kb (α1D-adrenoreceptors) was 1.48 nM and the “Schild slope ± S.E.M., α1D” value (α1D-adrenoreceptors) was 8.83 ± 0.09 (1.01 ± 0.07).
